Data taken from US9718812B2, “Substituted thiazole or oxazole P2X7 receptor antagonists” (Axxam S.P.A., priority 2014, dated 2017).

By UniProt entry, the sequences of proteins in these tests, tags left out. Where a name states a change or a piece, a line headed by the entry shows the natural chain unless it says otherwise.
UniProt Q99572: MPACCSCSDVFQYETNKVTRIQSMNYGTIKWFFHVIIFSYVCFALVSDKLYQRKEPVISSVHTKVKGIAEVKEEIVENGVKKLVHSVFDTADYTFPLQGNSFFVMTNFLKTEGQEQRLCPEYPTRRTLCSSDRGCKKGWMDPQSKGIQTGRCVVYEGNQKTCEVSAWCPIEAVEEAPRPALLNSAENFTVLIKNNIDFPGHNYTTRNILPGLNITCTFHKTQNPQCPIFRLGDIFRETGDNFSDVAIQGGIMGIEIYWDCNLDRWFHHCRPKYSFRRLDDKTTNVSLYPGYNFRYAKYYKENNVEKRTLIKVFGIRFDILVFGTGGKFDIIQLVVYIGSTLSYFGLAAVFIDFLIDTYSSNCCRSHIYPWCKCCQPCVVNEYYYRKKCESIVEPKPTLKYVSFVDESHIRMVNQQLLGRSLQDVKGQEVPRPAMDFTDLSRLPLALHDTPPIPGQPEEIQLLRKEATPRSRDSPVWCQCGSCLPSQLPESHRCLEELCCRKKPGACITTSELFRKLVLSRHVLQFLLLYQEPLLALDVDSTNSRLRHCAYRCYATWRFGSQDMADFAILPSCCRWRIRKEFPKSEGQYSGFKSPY

Columns and labels:
Type in all cases: cell-based
[1] = target: T1, P2X7 receptor (Homo sapiens (Human), UniProt Q99572); experiment: human P2X7 channel assay by automated patch-clamp (QPatch 16X); conditions: HEK-293 cells expressing P2X7 channels, 100 microM BzATP, held at -80 mV, read-out: hP2X7 (IC50; nM)
Experimental: In order to directly monitor the block of P2X7 channel, an electrophysiological assay was developed and implemented on the QPatch 16X automated electrophysiology instrument.
HEK-293 cells expressing the P2X7 channels were cultured in modified EMEM.
72 hours before experiment, 5 million cells were seeded onto T225 flasks. Just before the experiment cells were washed twice, detached from the flask with trypsin-EDTA, re-suspended in the suspension solution and placed on the QPatch 16x.
The compounds (20 mM in a 100% DMSO) stored at −20° C. were prepared the day of the experiment (a first dilution 1:20 in 100% DMSO to prepare a 1 mM stock solution, then a 1 microM solution in external solution+a serial dilution 1:10).
The standard whole-cell voltage clamp experiments were performed at room temperature. For these experiments the multihole technology was used and the data were sampled at 2 KHz.
The intracellular solution contained (mM) 135 CsF, 10 NaCl, 1 EGTA, 10 HEPES, (pH 7.2 with CsOH) whereas the extracellular contained (mM) 145 NaCl, 4 KCl, 0.5 MgCl2, 1 CaCl2, 10 HEPES, 10 Glc (pH 7.4 with NaOH).
After establishment of the seal and the passage in the whole cell configuration, the cells were held at −80 mV. The P2XR7 current was evoked by applying 100 microM of BzATP alone (4 times) and then in the presence increasing concentrations of the compound under investigation (1, 10, 100 and 1000 nM).
The pre-incubation periods 5 to 8 contain increasing concentrations of the compound of interest (1, 10, 100 and 1000 nM), as illustrated in Figure (application protocol).
The maximal inward current evoked by BzATP in absence or presence of increasing concentrations of the compounds under investigation was measured and normalized. The potential agonist effect was measured as % of control and as IC50 determined fitting the dose-response curves data with the following equation: Y=100/(1+10^((Log IC50−X)*HillSlope))
Y: normalized response, 100% down to 0%, decreasing as X increases.
Log IC50: same log units as X
HillSlope: slope factor or HS, unitless

[2] = target: P2X7 receptor (hP2X7) (Homo sapiens (Human), UniProt Q99572); experiment: Screen Quest Fluo-8 No Wash Calcium Assay (Bz-ATP-induced Ca2+ influx, FLIPR TETRA); conditions: HEK-293 cells stably transfected with P2X7 receptor, Fluo-8 calcium, Low Divalent Cation Assay Buffer
Experimental: Extracellular binding of Bz-ATP to P2X7 receptor opens the channel and allows Ca2+ influx into the cells. This Ca2+ entry was measured in HEK-293 cells stably transfected with P2X7 receptor using Screen Quest™ Fluo-8 No Wash Calcium Assay Kit (AAt Bioquest®, cat. 36316). Once inside the cell, the lipophilic blocking groups of Fluo-8 are cleaved by non-specific cell esterases, resulting in a negatively-charged fluorescent dye that stays inside cells. Its fluorescence increases upon binding to calcium. When HEK-293/P2X7 cells are stimulated with Bz-ATP, Ca2+ enters the cells and the fluorescence of Fluo-8 NW increases. The dye has an absorption spectrum compatible with excitation at 488 nm by argon laser sources and its emission wavelength is in the range of 515-575 nm.
HEK-293 cells stably transfected with P2X7 receptor were seeded overnight in growth medium at 10,000 to 20,000 cells/well in 384-well plate. 24 hours later, the medium was removed and the cells were pre-loaded at RT for 1 hour with 20 μL/w of Fluo-8 NW. Then 10 μL/w of test compounds and reference antagonist A438079 at 3×-concentration were injected with the FLIPRTETRA and the kinetic response over a period of five minutes was monitored. A second injection of 15 μL/w of 3× reference activator (Bz-ATP at EGO was performed with the FLIPRTETRA and the signal of the emitted fluorescence was recorded for additional three minutes. All the experiment was carried out in a Low Divalent Cation Assay Buffer (0.3 mM Ca2+ and 0 mM Mg2+). The effect of the test compounds was measured as percent inhibition vs the reference antagonist and IC50 values were calculated accordingly.

[3] = target: T1, P2X7 receptor; experiment: YO-PRO-1 Uptake Assay (large pore form, Bz-ATP stimulated); conditions: HEK-293 cells stably transfected with P2X7 receptor; Bz-ATP EC80 (30 μM); 5 μM YO-PRO-1
Excerpt: YO-PRO®-1 is a fluorescent DNA-binding dye with a MW of 374 Da (Molecular Probes®, cat. Y3603). This method is based upon the presumed ability of YO-PRO®-1 to enter through the dilated or “large pore form” of P2X7 receptor and to bind to intracellular DNA whereupon it increases many fold its fluorescence intensity. The dye has an absorption spectrum compatible with excitation at 488 nm by argon laser sources and its emission wavelength is in the range of 515-575 nm. The aim of this assay was to validate the interaction of antagonists with P2X7 receptor using an alternative readout to Ca^2+-sensitive fluorescent dyes.
HEK-293 cells stably transfected with P2X7 receptor were seeded overnight in growth medium at 20,000 cells/well in 384-well plate. 24 hours later, the medium was removed, the cells were washed with Low Divalent Cation Assay Buffer (0.3 mM Ca2+ and 0 mM Mg2+) and then pre-loaded with 20 μL/w of 5 μM YO-PRO®-1 dye. FLIPRTETRA fluorescence measurement immediately started. Then, 10 μL/w of test compounds and reference antagonist A438079 at 3×-concentration were injected with the FLIPRTETRA and the kinetic response over a period of five minutes was monitored. A second injection of 10 μL/w of 3× Bz-ATP EC80 (30 μM) was performed with the FLIPRTETRA and the signal of the emitted fluorescence was recorded for additional 60 minutes. All the experiment was carried out with a Low Divalent Cation Assay Buffer (0.3 mM Ca^2+ and 0 mM Mg^2+).
The effect of the test compounds was measured as percent inhibition vs the reference antagonist and IC50 values were calculated accordingly.

Compound | IC50 [1] | IC50 [2] | IC50 [3]
Cc1ncsc1C(CNC(=O)c1cc(-c2ncc(F)cn2)ccc1Cl)N1CCC(F)(F)CC1 (racemic) [Compound 34, 2-chloro-N-[2-(4,4-difluoropiperidin-1-yl)-2-(4-methyl-1,3-thiazol-5-yl)ethyl]-5-(5-fluoropyrimidin-2-yl)benzamide] | 131 nM | 111 nM | 41 nM
Cc1ncsc1C(CNC(=O)c1cc(-c2ncc(F)cn2)ccc1Cl)N1CCC(F)(F)CC1 (single isomer, unassigned; (+)) [Compound 75, (+)-2-chloro-N-[2-(4,4-difluoropiperidin-1-yl)-2-(4-methyl-1,3-thiazol-5-yl)ethyl]-5-(5-fluoropyrimidin-2-yl)benzamide] |  | 30 nM | 28 nM
Cc1ncsc1C(CNC(=O)c1cc(-c2ncc(F)cn2)ccc1Cl)N1CCC(F)(F)CC1 (single isomer, unassigned; (-)) [Compound 76, (−)-2-chloro-N-[2-(4,4-difluoropiperidin-1-yl)-2-(4-methyl-1,3-thiazol-5-yl)ethyl]-5-(5-fluoropyrimidin-2-yl)benzamide] | 35.9 nM | 238 nM | 637 nM
[2H]c1nc(C)c(C(CNC(=O)c2cc(-c3ncc(F)cn3)ccc2Cl)N2CCC(F)(F)CC2)s1 (stereo not drawn) [Compound 69, 2-chloro-N-[2-(4,4-difluoropiperidin-1-yl)-2-[4-methyl(^2H)-1,3-thiazol-5-yl]ethyl]-5-(5-fluoropyrimidin-2-yl)benzamide] | 31.4 nM |  | 
